Results taken from US20020110808A1, “Toxicant-induced differential gene expression” (priority 2000, published 2002).

Tested on: HepG2 cells
Assay: cDNA array (GF200) expression profiling
Assay type: cell-based, human

CC(=O)Nc1ccc(O)cc1 [acetaminophen]
Metallothionein-1H induction: strongly induced | Global differential gene expression (rms) over time (1 to 24 hr, 20 mM acetaminophen, 16 mM caffeine, 100 mM thioacetamide): reaches a peak between 6 and 18 hr
